The values that follow are results of earlier work, collected in publication PMC10266261, “A High-Throughput Approach to Identify Specific Neurotoxicants / Developmental Toxicants in Human Neuronal Cell Function Assays” (ALTEX, 2018).

Molecules are shown by their SMILES.

The test system of this data set is cardiomyocytes. The following applies: specific = cardio-physiologic parameters affected after 30 min at three-fold lower concentration than viability and no effect on viability after 24 h; ref Sirenko et al., 2017; cited from earlier work.

Take `CC/C(=C(/CC)c1ccc(O)cc1)c1ccc(O)cc1` [Diethylstilbestrol]: the “classification in the cardiotoxicity test method” value is reported as “generally cytotoxic”.
